Data: patent US9687539B2, “CD4+ T survivin epitopes and uses thereof” (Commissariat a I'Energie Atomique, priority 2005, dated 2017)

Tested on: 12 predominant HLA II molecules
Experiment: Binding to the 12 predominant HLA II molecules, summary
Design: species or system human

CC(C)C[C@H](NC(=O)[C@H](Cc1ccccc1)NC(=O)[C@@H]1CCCN1C(=O)[C@H](Cc1c[nH]c2ccccc12)NC(=O)[C@H](CC(N)=O)NC(=O)[C@H](CCCCN)NC(=O)[C@H](Cc1ccccc1)NC(=O)[C@@H](NC(=O)[C@@H](N)CO)[C@@H](C)O)C(=O)N[C@@H](CCC(=O)O)C(=O)NCC(=O)N[C@@H](CS)C(=O)N[C@@H](C)C(=O)N[C@@H](CS)C(=O)N[C@H](C(=O)O)[C@@H](C)O [peptide 20-34, S T F K N W P F L E G C A C T]
Affinity for HLA II molecules (class words): good affinity for at least four HLA II molecules | No. of molecules fixed (number of the 12 predominant HLA II molecules bound (IC50 < 1000 nM)): 4
